Chains of the proteins cited; added tags and fusions are not shown.
Protein disulfide-isomerase A6 (Homo sapiens), Q15084, UniProt Q15084, whole entry, looked up: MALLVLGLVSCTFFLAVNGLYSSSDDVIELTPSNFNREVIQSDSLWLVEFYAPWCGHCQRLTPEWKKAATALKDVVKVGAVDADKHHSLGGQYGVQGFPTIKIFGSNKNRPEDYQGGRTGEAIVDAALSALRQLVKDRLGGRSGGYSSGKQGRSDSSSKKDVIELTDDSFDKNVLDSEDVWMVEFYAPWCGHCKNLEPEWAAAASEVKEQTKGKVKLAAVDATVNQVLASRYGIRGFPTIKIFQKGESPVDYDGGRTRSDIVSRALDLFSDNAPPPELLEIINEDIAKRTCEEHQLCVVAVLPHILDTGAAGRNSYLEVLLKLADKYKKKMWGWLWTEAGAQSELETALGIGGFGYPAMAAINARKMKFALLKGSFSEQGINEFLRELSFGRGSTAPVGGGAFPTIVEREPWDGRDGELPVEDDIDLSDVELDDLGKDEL
Protein disulfide-isomerase (Homo sapiens), P07237, UniProt P07237, whole entry, looked up: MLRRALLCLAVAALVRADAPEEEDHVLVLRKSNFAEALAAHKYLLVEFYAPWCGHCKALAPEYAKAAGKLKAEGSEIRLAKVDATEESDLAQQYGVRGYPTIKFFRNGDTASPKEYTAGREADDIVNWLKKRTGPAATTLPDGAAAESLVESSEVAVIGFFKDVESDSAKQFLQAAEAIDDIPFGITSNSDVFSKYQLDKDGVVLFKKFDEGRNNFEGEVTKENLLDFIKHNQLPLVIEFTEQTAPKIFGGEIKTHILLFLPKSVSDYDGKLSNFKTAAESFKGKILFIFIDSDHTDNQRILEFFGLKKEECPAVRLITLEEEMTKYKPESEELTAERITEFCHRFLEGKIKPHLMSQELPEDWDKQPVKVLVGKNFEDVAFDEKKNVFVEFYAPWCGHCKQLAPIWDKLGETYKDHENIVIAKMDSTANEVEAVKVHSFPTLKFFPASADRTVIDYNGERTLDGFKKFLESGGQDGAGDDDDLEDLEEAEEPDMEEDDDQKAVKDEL

# ERp5 inh: inhibitors of ERp5-driven insulin aggregation, primary screen, biochemical, turbidity, absorbance 650 nm, single point; inhibition, % at 9.99 µM; Protein disulfide-isomerase A6 (Homo sapiens), Q15084; AID 651711, 2012; 90 min; 0.05% of 350,000 active;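 active = mean replicate inhibition above about 25%, with every replicate also reaching it, limit read from the data, passing the limit was not always enough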
# Yeast UUG start: alters start codon recognition fidelity in yeast. S. cerevisiae UUG-firefly luciferase reporter, luminescence/redox ratio. activity score, % at 18.7 µM. 0.13% of 350,000 active. AID 602363;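 active = replicate mean at a twofold rise or more, about +100% in these data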;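 also: firefly luciferase made from a UUG start codon reports start codon fidelity; reporter light over untreated wells divided by growth signal over untreated wells; some hits fall short of that in this replicate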
# SIRT5 block: SIRT5 desuccinylase inhibitors, primary screen, biochemical, fluorescence imaging, single point, set 5; NAD-dependent protein deacylase sirtuin-5, mitochondrial (Homo sapiens), Q9NXA8; Purified SirT5, succinyl-peptide AMC, trypsin-coupled fluorescence; inhibition, % at 15 µM; 1.1% of 330,000 active; in the data active = inhibition above about 15%
# PDI turbidity: inhibitors of human PDI, primary screen, biochemical, turbidity, single point, plate reader; Protein disulfide-isomerase (Homo sapiens), P07237; PDI insulin aggregation turbidity, A650, 90 min; inhibition, % at 10 µM; 0.052% of 350,000 active; AID 588391, 2011;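 active = mean inhibition across replicates of 30% or more, whatever share of single replicates reach that level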
# S100A4 inh HTS: inhibitors of S100A4-myosin IIA peptide binding, primary screen, biochemical, fluorescence polarization, TAMRA-MyoIIA peptide | Protein S100-A4 (Homo sapiens), P26447 | inhibition, % at 10.7 µM | 0.14% of 360,000 active | AID 652163, 2013;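 active = mean inhibition of at least 70% across replicates, with every replicate also reaching that level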
#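 Test system: S100A4 monomer protein; Medium: HEPES pH 7.2 with CaCl2, KCl, NaCl, DTT, Triton; Probe or stimulus: TAMRA-labelled myosin IIA heavy-chain peptide probe, 5 nM; Doses: one dose per compound; Times: polarization read 5 min after assay mix addition, stable 5–60 min; Benchmarks: neutral control DMSO, positive control TFP.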
# FGF22 binding: binders of human FGF22 protein, primary screen, FGF22 synaptogenesis inhibitor project, biophysical, thermal shift, single point; AID 651658, 2012; activity (Tm shift, normalised), % at 9.99 µM; Fibroblast growth factor 22 (Homo sapiens), Q9HCT0; 1.5% of 340,000 active; recombinant FGF22 thermal shift, SYPRO orange fluorescence; percent of sucrose octasulfate shift, DMSO zero;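 active = mean Tm shift, scaled 0 neutral to 100 positive control, at about 1.3% or above, every replicate too, limit read from the data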
# Numbers stand for hits; 0 = inactive; - = no result given; ! = repeats disagree. Hits are enriched below; roughly 2.2% of the tested compounds scored in any of these assays.
SMILES,ERp5 inh,Yeast UUG start,SIRT5 block,PDI turbidity,S100A4 inh HTS,FGF22 binding
CCN1[C@@H]2c3ccc(-c4cccc(F)c4)c(=O)n3C[C@@H]2[C@@H](CO)[C@@H]1C(=O)N[C@H](C)c1ccccc1,0,0,27,-,0,-
CCNC(=O)[C@H]1[C@H](CO)[C@H]2Cn3c(ccc(-c4ccccc4)c3=O)[C@H]2N1CC,0,-,0,-,0,0
CCN1[C@H](C(=O)N[C@@H](C)c2ccccc2)[C@@H](CO)[C@@H]2Cn3c(ccc(-c4cccc(F)c4)c3=O)[C@@H]21,0,0,0,-,0,-
O=C(O)[C@@H]1[C@@H](CO)[C@@H]2Cn3c(ccc(-c4ccccc4F)c3=O)[C@@H]2N1Cc1ccccc1,0,-,19,-,0,0
CCNC(=O)[C@@H]1[C@@H](CO)[C@@H]2Cn3c(ccc(-c4ccccc4)c3=O)[C@@H]2N1CC,0,-,0,-,78,0
CCN1[C@@H]2c3ccc(-c4ccccc4)c(=O)n3C[C@@H]2[C@@H](CO)[C@@H]1C(=O)NCC(F)(F)F,37,-,0,-,0,0
Cc1cccc(S(=O)(=O)N2[C@@H]3Cn4c(cccc4=O)[C@H]2[C@@H](C(=O)NC2CCC2)[C@@H]3CO)c1,0,-,0,-,0,0
COCC(=O)N1CC(=O)N2[C@@H](CO)[C@@H](c3ccc(C#Cc4cccc(OC)c4)cc3)[C@@H]2C1,0,-,0,-,0,-
Cc1nc2nc[nH]n2c(=O)c1NS(=O)(=O)c1ccc(F)cc1,0,-,0,0,0,0
COc1ccc(S(=O)(=O)Nc2c(C)nc3nc[nH]n3c2=O)cc1,0,0,0,0,0,43
CC(C)NC(=O)Nc1ccc2c(c1)C(=O)N([C@H](C)CO)C[C@@H](C)[C@H](CN(C)S(=O)(=O)c1ccccc1)OCCCC[C@H](C)O2,0,0,0,-,0,0
O=C(Nc1ccn(Cc2c(F)c(F)cc(F)c2F)n1)c1ccc(COc2ccccc2Cl)cc1,0,-,0,0,0,0
Cc1cc(C)nc(NC(=O)c2ccc(COc3ccccc3Cl)cc2)c1,0,0,0,0,0,44
CCOC(=O)CSc1nc(N)c(C#N)c(-c2ccc(OCC)cc2)c1C#N,-,0,-,0,-,-
CC1=C(C#N)c2nc(N)c(C#N)c(C)c2/C1=C\c1ccc(OCC(=O)O)c(Cl)c1,0,-,19,0,0,0
Cc1ccc(S(=O)(=O)NC[C@@H]2CC[C@@H]3[C@@H](CN3Cc3cc(F)ccc3F)O2)cc1,0,-,0,-,0,-
Cc1cccc(NC(=S)NC(=O)c2oc3ccccc3c2C)n1,0,0,0,0,0,43
Cc1cccc(NC(=S)NC(=O)c2ccc(-c3ccccc3)cc2)n1,0,0,0,0,0,0
CN1C(=O)c2cc(NC(=O)C3CC3)ccc2OC[C@H]2O[C@H](CC(=O)O)CC[C@@H]21,0,-,0,-,0,-
COC(=O)C(=C/C=C/c1cccnc1)C(=O)OC,0,0,0,0,0,43
CCCC#Cc1ccc2c(c1)O[C@@H](CN(C)S(=O)(=O)c1cccc(F)c1)[C@@H](C)CN([C@@H](C)CO)S2(=O)=O,0,0,0,-,0,0
COc1ccccc1S(=O)(=O)N(C)C[C@@H]1Oc2cc(C#CCC(C)C)ccc2S(=O)(=O)N([C@H](C)CO)C[C@@H]1C,0,0,23!,0,0,0
CC(C)CC#Cc1ccc2c(c1)O[C@@H](CN(C)S(=O)(=O)c1cccc(F)c1)[C@@H](C)CN([C@H](C)CO)S2(=O)=O,0,0,20,-,0,0
COc1ccccc1S(=O)(=O)N(C)C[C@H]1Oc2cc(C#CCC(C)C)ccc2S(=O)(=O)N([C@@H](C)CO)C[C@@H]1C,0,0,0,-,0,0
CCC(=O)N(C)C[C@H]1Oc2cc(-c3ccc(C#N)cc3)ccc2S(=O)(=O)N([C@@H](C)CO)C[C@@H]1C,85,0,0,-,0,0
SMILES,ERp5 inh,Yeast UUG start,SIRT5 block,PDI turbidity,S100A4 inh HTS,FGF22 binding
C[C@H]1CN([C@@H](C)CO)S(=O)(=O)c2ccc(-c3ccc(C#N)cc3)cc2O[C@@H]1CN(C)Cc1cccc(F)c1,0,0,16,-,0,0
C[C@@H]1CN([C@H](C)CO)S(=O)(=O)c2ccc(-c3ccc(C#N)cc3)cc2O[C@H]1CN(C)Cc1cccc(F)c1,0,0,0,-,0,0
CCCC#Cc1ccc2c(c1)O[C@@H](CN(C)Cc1ccc3c(c1)OCO3)[C@@H](C)CN([C@H](C)CO)S2(=O)=O,0,0,0,-,0,0
CC(C)CC#Cc1ccc2c(c1)O[C@@H](CN(C)Cc1ccc3c(c1)OCO3)[C@@H](C)CN([C@@H](C)CO)S2(=O)=O,0,0,14,-,0,-
CC(C)CC#Cc1ccc2c(c1)O[C@@H](CN(C)Cc1cccc(F)c1)[C@H](C)CN([C@H](C)CO)S2(=O)=O,0,0,16,-,0,0
CC(C)CC#Cc1ccc2c(c1)O[C@@H](CN(C)Cc1ccccc1)[C@@H](C)CN([C@@H](C)CO)S2(=O)=O,-,0,-,-,-,-
C[C@H](CO)N1C[C@H](C)[C@H](CN(C)Cc2cccnc2)Oc2cc(C#CC3CCCCC3)ccc2S1(=O)=O,0,0,12,-,0,0
CC(C)CC#Cc1ccc2c(c1)O[C@H](CN(C)Cc1ccc(C(=O)O)cc1)[C@@H](C)CN([C@H](C)CO)S2(=O)=O,0,0,29,-,0,0
CN(C)CC(=O)N1CC2(C1)[C@H](c1ccccc1)[C@H](CO)N2Cc1ccccc1F,0,-,0,-,0,0
CC(C)CC#Cc1ccc2c(c1)O[C@@H](CN(C)Cc1cccnc1)[C@@H](C)CN([C@H](C)CO)S2(=O)=O,0,0,-,-,0,0
CC(C)CC#Cc1ccc2c(c1)O[C@H](CN(C)Cc1cccnc1)[C@@H](C)CN([C@@H](C)CO)S2(=O)=O,0,-,18,-,-,-
Cc1ccc(-c2ccc3c(c2)O[C@H](CN(C)Cc2cccnc2)[C@H](C)CN([C@@H](C)CO)S3(=O)=O)cc1,0,0,15,-,0,0
C[C@H](CO)N1C[C@H](C)[C@@H](CN(C)Cc2cccnc2)Oc2cc(C#CC3CCCC3)ccc2S1(=O)=O,0,0,15,-,0,0
C[C@H](CO)N1C[C@H](C)[C@@H](CN(C)Cc2cccnc2)Oc2cc(C#CC3CCCCC3)ccc2S1(=O)=O,0,0,0,-,0,0
C[C@@H](NC(=O)[C@H]1[C@H](CO)[C@H]2Cn3c(ccc(-c4cccc(F)c4)c3=O)[C@H]2N1C)c1ccccc1,0,-,0,-,0,-
Cc1ccc(S(=O)(=O)Nc2ccc3c(c2)C(=O)N([C@H](C)CO)C[C@@H](C)[C@@H](CN(C)S(=O)(=O)c2ccc(C)cc2)OCCCC[C@@H](C)O3)cc1,0,0,0,-,103,0

# Screening data (PubChem)
